Test results as given in patent publication US20190216767A1, “TOPICAL THERAPY FOR THE TREATMENT OF SKIN KERATOSES USING NANOPARTICLES OF TAXANES” (DFB SORIA, LLC, priority 2017, published 2019).

Assay: Solubility of the active in the receptor fluid
Type: physicochemical
Conditions: 96 wt % PBS at pH 7.4 and 4 wt % hydroxyl propyl beta cyclodextrin

In the case of paclitaxel, the “solubility of the active in the receptor fluid” value is reported as roughly 0.4 µg/mL.
